# Values of other authors as cited in patent publication US8815778B2, “PH modulation method to detect ligand-receptor binding” (The Texas A&M University System, priority 2008, dated 2014).
# Conditions: 397 nm; cited from earlier work
substance,measurement,value
Coumarin 39,σ01 (λ),4.7 (397 nm) 10^−17 cm^2
